Some tests of the compounds listed are not included; inactive here does not mean inactive elsewhere.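 The compound was tested at five concentrations on cells cultured in 96-well plates, with a 48-hour exposure period. GI50: concentration for 50% inhibition of growth. TGI is the concentration that stops growth completely.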
Key:
Experiment in all cases: NCI tumour cell line growth inhibition, 48 h
HOP-92 NSCLC = tested on: HOP-92 NSCLC
MOLT-4 leukemia = tested on: MOLT-4 leukemia
A498 renal = tested on: A498 renal
IGROV1 ovarian = tested on: IGROV1 ovarian
HCT-116 colon = tested on: HCT-116 colon
SF-295 CNS = tested on: SF-295 CNS
EKVX NSCLC = tested on: EKVX NSCLC
RXF 393 renal = tested on: RXF 393 renal
HOP-62 NSCLC = tested on: HOP-62 NSCLC
MDA-MB-231 breast = tested on: MDA-MB-231 breast
MALME-3M melanoma = tested on: MALME-3M melanoma
NCI-H460 lung = tested on: NCI-H460 lung
SNB-19 CNS = tested on: SNB-19 CNS
UACC-62 melanoma = tested on: UACC-62 melanoma
MDA-MB-435 = tested on: MDA-MB-435
T-47D breast = tested on: T-47D breast
OVCAR-3 ovarian = tested on: OVCAR-3 ovarian
RPMI-8226 leukemia = tested on: RPMI-8226 leukemia
DU-145 prostate = tested on: DU-145 prostate
SW-620 colon = tested on: SW-620 colon
TK-10 renal = tested on: TK-10 renal
LOX IMVI melanoma = tested on: LOX IMVI melanoma
CAKI-1 renal = tested on: CAKI-1 renal
ACHN renal = tested on: ACHN renal
SK-MEL-2 melanoma = tested on: SK-MEL-2 melanoma
SK-MEL-5 melanoma = tested on: SK-MEL-5 melanoma
UACC-257 melanoma = tested on: UACC-257 melanoma
M14 melanoma = tested on: M14 melanoma
SF-539 CNS = tested on: SF-539 CNS
SF-268 CNS = tested on: SF-268 CNS
OVCAR-4 ovarian = tested on: OVCAR-4 ovarian
U251 CNS = tested on: U251 CNS
SK-OV-3 ovarian = tested on: SK-OV-3 ovarian
HS 578T breast = tested on: HS 578T breast
NCI-H23 lung = tested on: NCI-H23 lung
NCI/ADR-RES ovarian = tested on: NCI/ADR-RES ovarian
PC-3 prostate = tested on: PC-3 prostate
NCI-H522 lung = tested on: NCI-H522 lung
OVCAR-8 ovarian = tested on: OVCAR-8 ovarian
KM12 colon = tested on: KM12 colon
A549 NSCLC = tested on: A549 NSCLC
786-0 renal = tested on: 786-0 renal
CCRF-CEM leukemia = tested on: CCRF-CEM leukemia
COLO 205 colon = tested on: COLO 205 colon
MDA-N = tested on: MDA-N
HL-60(TB) leukemia = tested on: HL-60(TB) leukemia
SR leukemia = tested on: SR leukemia
SN12C renal = tested on: SN12C renal
HCT-15 colon = tested on: HCT-15 colon
HCC-2998 colon = tested on: HCC-2998 colon
NCI-H322M lung = tested on: NCI-H322M lung
HT29 colon = tested on: HT29 colon
K-562 leukemia = tested on: K-562 leukemia
OVCAR-5 ovarian = tested on: OVCAR-5 ovarian
SK-MEL-28 melanoma = tested on: SK-MEL-28 melanoma
MCF7 breast = tested on: MCF7 breast

With `C/C=C\C(O)(C(=O)OC1CN2CCC1CC2)C1CCCCC1` (configuration not stated) the GI50 (HOP-92 NSCLC) was 49.8 µM, the TGI (HOP-92 NSCLC) was > 100 µM and the GI50 (MOLT-4 leukemia) was > 100 µM. For the same compound, the TGI (MOLT-4 leukemia) was > 100 µM, the GI50 (A498 renal) was > 100 µM and the TGI (A498 renal) was > 100 µM. For the same compound, the GI50 (IGROV1 ovarian) was > 100 µM, the TGI (IGROV1 ovarian) was > 100 µM and the GI50 (HCT-116 colon) was > 100 µM. The TGI (HCT-116 colon) was > 100 µM, the GI50 (SF-295 CNS) was > 100 µM and the TGI (SF-295 CNS) was > 100 µM. The GI50 (EKVX NSCLC) was > 100 µM, the TGI (EKVX NSCLC) was > 100 µM and the GI50 (RXF 393 renal) was > 100 µM. The TGI (RXF 393 renal) was > 100 µM, the GI50 (HOP-62 NSCLC) was > 100 µM and the TGI (HOP-62 NSCLC) was > 100 µM. For the same compound, the GI50 (MDA-MB-231 breast) was > 100 µM, the TGI (MDA-MB-231 breast) was > 100 µM and the GI50 (MALME-3M melanoma) was > 100 µM. The TGI (MALME-3M melanoma) was > 100 µM, the GI50 (NCI-H460 lung) was > 100 µM and the TGI (NCI-H460 lung) was > 100 µM. For the same compound, the GI50 (SNB-19 CNS) was > 100 µM, the TGI (SNB-19 CNS) was > 100 µM and the GI50 (UACC-62 melanoma) was > 100 µM. The TGI (UACC-62 melanoma) was > 100 µM, the GI50 (MDA-MB-435) was > 100 µM and the TGI (MDA-MB-435) was > 100 µM. For the same compound, the GI50 (T-47D breast) was > 100 µM, the TGI (T-47D breast) was > 100 µM and the GI50 (OVCAR-3 ovarian) was > 100 µM. For the same compound, the TGI (OVCAR-3 ovarian) was > 100 µM, the GI50 (RPMI-8226 leukemia) was > 100 µM and the TGI (RPMI-8226 leukemia) was > 100 µM. The GI50 (DU-145 prostate) was > 100 µM, the TGI (DU-145 prostate) was > 100 µM and the GI50 (SW-620 colon) was > 100 µM. For the same compound, the TGI (SW-620 colon) was > 100 µM, the GI50 (TK-10 renal) was > 100 µM and the TGI (TK-10 renal) was > 100 µM. For the same compound, the GI50 (LOX IMVI melanoma) was > 100 µM, the TGI (LOX IMVI melanoma) was > 100 µM and the GI50 (CAKI-1 renal) was > 100 µM. The TGI (CAKI-1 renal) was > 100 µM, the GI50 (ACHN renal) was > 100 µM and the TGI (ACHN renal) was > 100 µM. For the same compound, the GI50 (SK-MEL-2 melanoma) was > 100 µM, the TGI (SK-MEL-2 melanoma) was > 100 µM and the GI50 (SK-MEL-5 melanoma) was > 100 µM. For the same compound, the TGI (SK-MEL-5 melanoma) was > 100 µM, the GI50 (UACC-257 melanoma) was > 100 µM and the TGI (UACC-257 melanoma) was > 100 µM. For the same compound, the GI50 (M14 melanoma) was > 100 µM, the TGI (M14 melanoma) was > 100 µM and the GI50 (SF-539 CNS) was > 100 µM. The TGI (SF-539 CNS) was > 100 µM, the GI50 (SF-268 CNS) was > 100 µM and the TGI (SF-268 CNS) was > 100 µM. The GI50 (OVCAR-4 ovarian) was > 100 µM, the TGI (OVCAR-4 ovarian) was > 100 µM and the GI50 (U251 CNS) was > 100 µM. For the same compound, the TGI (U251 CNS) was > 100 µM, the GI50 (SK-OV-3 ovarian) was > 100 µM and the TGI (SK-OV-3 ovarian) was > 100 µM. For the same compound, the GI50 (HS 578T breast) was > 100 µM, the TGI (HS 578T breast) was > 100 µM and the GI50 (NCI-H23 lung) was > 100 µM. For the same compound, the TGI (NCI-H23 lung) was > 100 µM, the GI50 (NCI/ADR-RES ovarian) was > 100 µM and the TGI (NCI/ADR-RES ovarian) was > 100 µM. The GI50 (PC-3 prostate) was > 100 µM, the TGI (PC-3 prostate) was > 100 µM and the GI50 (NCI-H522 lung) was > 100 µM. The TGI (NCI-H522 lung) was > 100 µM, the GI50 (OVCAR-8 ovarian) was > 100 µM and the TGI (OVCAR-8 ovarian) was > 100 µM. The GI50 (KM12 colon) was > 100 µM, the TGI (KM12 colon) was > 100 µM and the GI50 (A549 NSCLC) was > 100 µM. For the same compound, the TGI (A549 NSCLC) was > 100 µM, the GI50 (786-0 renal) was > 100 µM and the TGI (786-0 renal) was > 100 µM. For the same compound, the GI50 (CCRF-CEM leukemia) was > 100 µM, the TGI (CCRF-CEM leukemia) was > 100 µM and the GI50 (COLO 205 colon) was > 100 µM. For the same compound, the TGI (COLO 205 colon) was > 100 µM, the GI50 (MDA-N) was > 100 µM and the TGI (MDA-N) was > 100 µM. For the same compound, the GI50 (HL-60(TB) leukemia) was > 100 µM, the TGI (HL-60(TB) leukemia) was > 100 µM and the GI50 (SR leukemia) was > 100 µM. For the same compound, the TGI (SR leukemia) was > 100 µM, the GI50 (SN12C renal) was > 100 µM and the TGI (SN12C renal) was > 100 µM. The GI50 (HCT-15 colon) was > 100 µM, the TGI (HCT-15 colon) was > 100 µM and the GI50 (HCC-2998 colon) was > 100 µM. For the same compound, the TGI (HCC-2998 colon) was > 100 µM, the GI50 (NCI-H322M lung) was > 100 µM and the TGI (NCI-H322M lung) was > 100 µM. For the same compound, the GI50 (HT29 colon) was > 100 µM, the TGI (HT29 colon) was > 100 µM and the GI50 (K-562 leukemia) was > 100 µM. For the same compound, the TGI (K-562 leukemia) was > 100 µM, the GI50 (OVCAR-5 ovarian) was > 100 µM and the TGI (OVCAR-5 ovarian) was > 100 µM. For the same compound, the GI50 (SK-MEL-28 melanoma) was > 100 µM, the TGI (SK-MEL-28 melanoma) was > 100 µM and the GI50 (MCF7 breast) was > 100 µM. The TGI (MCF7 breast) was > 100 µM.

— PubChem BioAssay (NCI)
